The subject of one data set is LH/CG receptor. Put plainly: LH/CG-receptor binding, displacement of iodinated hCG to rat testis membranes. The note with it: [125I]hCG, room temperature, 18 h. On the procedure:
Binding to the LH/CG receptor is the first event in the mechanism of action of hCG. An in vitro receptor assay was used to determine the relative receptor binding potency of hCG interchain muteins by means of displacement of iodinated hCG to rat testis membranes (Rao et al., 1977). For this purpose a fixed amount of [125I]hCG was incubated with rat testis membranes and increasing amounts of sample at room temperature for 18 h. Additional incubations without sample were performed for the assessment of maximal binding. Non-specific binding was determined by adding a 1000 fold excess of unlabeled ligand (Pregnyl, Organon, West Orange, N.J.). Incubation was terminated by diluting the samples 2-fold with ice-cold Tris buffer supplemented with 0.1% BSA and centrifugation at room temperature for 5 rain at 150.000×N.kg-1. After aspiration of the supernatant, radioactivity in the pellet was determined using a gamma counter.

The subject of the next data set is mouse Leydig cells. As to the kind of experiment: hCG-induced testosterone production in mouse Leydig cells. Format: cell-based. The source says:
hCG induces testosterone production in mouse Leydig cells. An in vitro assay (Van Damme et al., 1974 modified by Mannaerts et al., 1987) is used to determine the hCG bioactivity of the hCG muteins containing the interchain disulphide bonds (FIG. 4). […] Therefore, hCG interchain 1 can be regarded as a full hCG agonist.

Data set [1] can be described thus: Western blot analysis of intersubunit disulfide formation (SDS solubilisation at 100° C.). Format: physicochemical. As to conditions: absence of β-mercapto ethanol, cell culture supernatants, Western blot with β-hCG specific monoclonal antibody. As for the experimental part: FIG. 2: Western blot analysis of cell culture supernatants from hCG interchain 1, hCG interchain 2 and hCG wild type for the expression of hCG (muteins) and formation of intersubunit disulfide bridges. Cell culture supernatants from G418-resistant transfection pools hCG interchain 1, hCG interchain 2 and from rec-hCG wild type containing approx. 0.2 IU hCG were solubilised at room temperature (Panel A) or 100° C. (Panels B and C) in SDS-containing sample buffer in the absence (Panels A and B) or presence of β-mercapto ethanol (Panel C). Following electrophoresis and transfer to PVDF membranes hCG was visualised by incubation with a β-hCG specific mononclonal antibody followed by incubation with a second antibody-HRP conjugate and staining with TMB. […] Addition of reducing agent results in the dissociation into subunits in all three samples (Panel C). The combined data thus lead to the conclusion that both HCG interchain 1 and 2 are stabilised by a intermolecular disulfide bridge.
In order to determine whether the newly introduced cysteines had oxidised into an intersubunit disulfide bond, samples from cell culture supernatants from G418-resistant transfection pools were dissolved by boiling in SDS-containing sample buffer, subjected to SDS-polyacrylamide gel electrophoresis and transferred to a PVDF membrane. hCG was visualised using immunostaining with a monoclonal antibody directed against the β subunit followed by incubation with a second antibody conjugated to horse radish peroxidase (HRP) and staining with tetramethyl benzidine (TMB)/Co^++ /H2 O2. When an intersubunit disulfide bond had formed, boiling of samples in SDS-sample buffer would keep the two subunits together whereas these solubilisation conditions would cause dissociation into subunits in case no disulphide bridge was formed. In control experiments samples were solubilised without reducing agent at room temperature (intact hCG) and by addition of β-mercapto ethanol (βME). In the latter case denaturation into subunits will occur, irrespective of the presence of interchain disulfide bond. […]

Data on two substances can be found in patent publication US5691455A, “Gonadotropins with non-native disulfide bridges” (Akzo Nobel N.V., priority 1995, dated 1997).

With “hCG interchain 1: hCG mutein with non-native intersubunit disulfide bridge Tyr α37 Cys - Ile β33 Cys”, the “displacement of iodinated hCG (relative receptor binding potency)” value in the data set on LH/CG receptor is given as “comparable to rec-hCG wild type”. For the same substance, the “testosterone production (in vitro hCG bioactivity, signal transducing ability)” value with mouse Leydig cells is listed as “same potency as rec-hCG wild type”. For the same substance, the “intact hormone versus dissociation into subunits upon boiling in SDS-containing sample buffer” value in data set [1] is listed as “detection of intact hormone”.

With “rec-hCG wild type: recombinant wild-type hCG expressed in CHO cells, control”, the results for the “intact hormone versus dissociation into subunits upon boiling in SDS-containing sample buffer” value in data set [1] and in data set [1] (listed as WT-hCG) were “dissociates into subunits” and “boiling dissociates the hormone into its subunits”, respectively.
